# Tested on: P2X7R
# Test: P2X7R expression in mouse brain by immunohistochemistry after paroxetine
# Type: in vivo
# Details: paroxetine 10 mg/kg twice per day, 28 days
# Protocol: The expression of P2X7R was further studied by immunohistochemistry of serial sections of complete mouse brains using a polyclonal antibody directed against an internal peptide of P2X7R (Santa Cruz Biotechnology). The brains from stress-free mice were shock frozen, cut into 16 μm slices and fixed with paraformaldehide for 5 minutes. The sections were blocked for 30 minutes at room temperature with 1:10 horse serum. All antibodies were diluted in TBST buffer (Tris-buffered saline with 0.05% Tween-20). The first antibody was used in a dilution 1:200 and incubated overnight. All washes were performed with TBST buffer. As a secondary antibody, an anti-goat IgG biotinylated (Vector Laboratories) was used and detection was performed using the streptavidin-biotin-horse-radish peroxidase complex system (Vector Laboratories) in combination with diaminobencidine. Slides were counterstained with toluidine blue using standard procedures. The same procedure in the absence of the primary antibody was performed as a negative control. As a positive control to test the Preservation of the tissue was verified with an antibody specific for the protein Patched1 (Santa Cruz Biotechnology). Patched1 was used as positive control since it stains all relevant brain structures and is not affected by stress or antidepressants. Very specific staining pattern was detected, consistent with the specific subcellular localization of P2X7R in brain cells. Negative controls were completely devoid of signal.
# The expression of P2X7R in the brains of mice under stress-free conditions, and mice under mild stress produced by the vehicle application, and mice under paroxetine treatment was evaluated using three different brains from each group. […] This effect was observed all along the hippocampus but was more evident in the polymorph layer near the dentate gyrus. […] Therefore, P2X7R expression is strongly regulated in two specific brain areas involved in depression and stress.
smiles,measurement,value
Fc1ccc([C@@H]2CCNC[C@H]2COc2ccc3c(c2)OCO3)cc1 [paroxetine],P2X7R expression in the ependymal cells,No significant change
same,P2X7R expression in the hippocampus,marked stimulation above basal levels
same,P2X7R expression in the olfactory bulb,No significant change
same,P2X7R expression in the periventricular nucleus of the hypothalamus,slight inhibition of P2X7R expression
same,P2X7R expression in the subcommissural organ,remained unchanged
